Laboratory results taken from patent US20210284688A1, “MUCUS-PENETRATING PEPTIDES AND SCREENING ASSAY” (BOARD OF REGENTS, THE UNIVERSITY OF TEXAS SYSTEM, priority 2016, published 2021).

System: complex mucin
Conditions: effective diffusivity in complex mucin (CM) compared to PBS; peptide on p3 of M13 phage; FIG. 15

## ISLPSPT [SEQ ID NO: 17]
  phage diffusivity: increased
